Results: PubChem BioAssay (EPA / NIEHS)
This is a selection; strong and weak results do not stand in their true shares. Calls of active or inactive are those of the source. The calls were made as follows, unless noted: active = hit-call score of the fitted dose curve at least 0.9, where 1 is the maximum; inactive = score below 0.9.

How the values were obtained:
IYD (gene 389434) = experiment: CCTE_GLTED_hIYD: CCTE's human Iodotyrosine Deiodinase (xIYD) Inhibition Assay, Great Lakes Toxicology and Ecology Division (GLTED) Lab (AID 2284317; active = hit-call score of the fitted dose curve at least 0.9, where 1 is the maximum)
Experimental: CCTE_GLTED_hIYD is a cell-free, single-readout assay that uses human iodotyrosine deiodinase (hIYD) enzyme produced with baculovirus-insect cell system. The assay is based on iodide release measured by the Sandell-Kolthoff method and is run in 96-well plate format with assay plates run in triplicate (n=3) with measurements taken at 3 hours after chemical dosing. Platewise-normalization was used based on positive control (3-Nitro-L-tyrosine, MNT) and negative/solvent controls (DMSO, NaOH).CCTE_GLTED_hIYD is the assay component measured from the CCTE_GLTED_hIYD assay. It measures substrate involved in regulation of catalytic activity using spectrophotometry. The assay measures the deiodination activity of human IYD on the substrate monoiodotyrosine (MIT). […] The free iodide is measured by the Sandell-Kolthoff reaction in which the rate of reduction of cerium (Ce+4 to Ce+3) by arsenic (As+3 to As+5) is increased by the presence of iodide. This is observed as the loss of yellow color in the reaction and the quantified by the change in absorbance at 420 nm. The change in reaction rate is proportional to the amount of iodide present.Data from the assay component CCTE_GLTED_hIYD was analyzed at the assay endpoint CCTE_GLTED_hIYD in the positive analysis fitting direction relative to DMSO as the negative control and baseline of activity. […]

[1] = read-out: TIMP metallopeptidase inhibitor 1 (TIMP1), TIMP1 (gene 7076); experiment: BSK_MyoF_TIMP1: BioMAP Diversity Plus: MyoF Assay for TIMP metallopeptidase inhibitor 1 (TIMP1) Biomarker Activity (AID 2284269); details: primary human lung fibroblasts
Method in brief: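 Fibroblasts from human lung are dosed with chemical, cultured 24 h, and assayed for TIMP-1 by ELISA. Increases over the DMSO baseline are scored, with SRB total-protein staining run in parallel for cytotoxicity.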

[2] = CCTE_Padilla_ZF_Score.General: CCTE's 144 Hour Post-fertilization zebrafish Assay Score for General Malformation, Padilla Lab (AID 2284411)
Method in brief: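 Wild-type zebrafish embryos were plated singly at 6-8 hpf in 10% Hanks' and exposed in sealed wells at 26C until rinsed on 5 dpf. At 6 dpf two blinded assessors scored mortality, hatching and malformations by stereomicroscopy; gain-of-signal versus DMSO.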

In the case of `O=[N+]([O-])c1ccccc1[N+](=O)[O-]`, the AC50 (IYD (gene 389434)) was active: 60.7 µM.
In the case of `CC(C)OP(OC(C)C)OC(C)C`, the outcome [1] was “inactive” and the outcome [2] was “inactive”.
